Data reported in BindingDB's records for 21406034.

Sequences of proteins named here, by UniProt entry; tags and fusion partners are left off. Residues count along the entry.
UniProt P22303, 32-614 limits assumed: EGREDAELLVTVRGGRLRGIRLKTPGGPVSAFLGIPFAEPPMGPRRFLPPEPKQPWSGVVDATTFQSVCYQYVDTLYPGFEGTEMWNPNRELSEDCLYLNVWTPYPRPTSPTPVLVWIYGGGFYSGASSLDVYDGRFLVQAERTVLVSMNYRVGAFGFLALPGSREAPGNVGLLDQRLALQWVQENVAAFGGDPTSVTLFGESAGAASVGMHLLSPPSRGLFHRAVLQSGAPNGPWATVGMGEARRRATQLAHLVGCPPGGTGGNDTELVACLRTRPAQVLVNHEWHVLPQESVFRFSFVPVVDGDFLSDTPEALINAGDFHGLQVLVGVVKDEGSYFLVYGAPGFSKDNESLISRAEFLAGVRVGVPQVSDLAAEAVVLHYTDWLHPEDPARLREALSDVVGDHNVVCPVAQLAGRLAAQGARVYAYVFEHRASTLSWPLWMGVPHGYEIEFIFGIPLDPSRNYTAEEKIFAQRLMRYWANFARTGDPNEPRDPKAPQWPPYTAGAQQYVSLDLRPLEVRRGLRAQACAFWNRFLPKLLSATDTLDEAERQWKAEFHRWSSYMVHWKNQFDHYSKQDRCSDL
UniProt P06276, 29-602 limits assumed: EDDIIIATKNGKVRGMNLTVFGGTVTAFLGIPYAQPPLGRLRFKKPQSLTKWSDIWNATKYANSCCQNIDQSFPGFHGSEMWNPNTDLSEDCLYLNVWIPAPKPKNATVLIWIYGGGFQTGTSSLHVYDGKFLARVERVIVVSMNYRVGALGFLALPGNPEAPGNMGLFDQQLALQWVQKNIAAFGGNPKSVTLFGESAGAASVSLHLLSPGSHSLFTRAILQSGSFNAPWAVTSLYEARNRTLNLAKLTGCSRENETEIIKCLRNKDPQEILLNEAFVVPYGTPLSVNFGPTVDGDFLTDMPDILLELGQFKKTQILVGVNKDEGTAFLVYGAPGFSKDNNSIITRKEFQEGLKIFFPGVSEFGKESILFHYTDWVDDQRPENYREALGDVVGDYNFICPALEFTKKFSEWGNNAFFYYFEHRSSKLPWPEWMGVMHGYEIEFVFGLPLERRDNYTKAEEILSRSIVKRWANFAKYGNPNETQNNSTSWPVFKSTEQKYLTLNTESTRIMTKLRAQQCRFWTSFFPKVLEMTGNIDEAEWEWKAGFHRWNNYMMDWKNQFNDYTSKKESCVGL

Experiments:
Acetylcholinesterase = Acetylcholinesterase (Homo sapiens, UniProt P22303); test: In Vitro Assay; conditions: pH 7.4
Cholinesterase = Cholinesterase (Homo sapiens, UniProt P06276); test: In Vitro Assay; conditions: pH 7.4

Structure (SMILES) | IC50 (Acetylcholinesterase) | IC50 (Cholinesterase)
CC(=O)c1cc[n+](C/C=C/C[n+]2ccc(C(C)=O)cc2)cc1 | 139 µM | 324 µM
COC(=O)c1cc[n+](C/C=C/C[n+]2ccc(C(=O)OC)cc2)cc1 | 401 µM | –
N#Cc1cc[n+](C/C=C/C[n+]2ccc(C#N)cc2)cc1 | 70 µM | 514 µM
Cc1cc[n+](C/C=C/C[n+]2ccc(C)cc2)cc1 | 0.9 µM | –
C(=C\C[n+]1ccc(CCCc2ccccc2)cc1)/C[n+]1ccc(CCCc2ccccc2)cc1 | 0.05 µM | 22 µM
NC(=O)c1cc[n+](C/C=C/C[n+]2ccc(C(N)=O)cc2)cc1 | 1200 µM | –
C(=C\C[n+]1ccc(-c2ccccc2)cc1)/C[n+]1ccc(-c2ccccc2)cc1 | 71 µM | 18 µM
OCCCc1cc[n+](C/C=C/C[n+]2ccc(CCCO)cc2)cc1 | 54 µM | 1440 µM
O/N=C/c1cc[n+](C/C=C/C[n+]2ccc(/C=N/O)cc2)cc1 | – | 1620 µM
Oc1cc[n+](C/C=C/C[n+]2ccc(O)cc2)cc1 | 509 µM | –
OCc1cc[n+](C/C=C/C[n+]2ccc(CO)cc2)cc1 | 799 µM | 4510 µM
CCc1cc[n+](C/C=C/C[n+]2ccc(CC)cc2)cc1 | 212 µM | 850 µM
CC(C)(C)c1cc[n+](C/C=C/C[n+]2ccc(C(C)(C)C)cc2)cc1 | 40 µM | 169 µM
O=C(O)c1cc[n+](C/C=C/C[n+]2ccc(C(=O)O)cc2)cc1 | 3870 µM | –
O=[N+]([O-])c1ccc(Cc2cc[n+](C/C=C/C[n+]3ccc(Cc4ccc([N+](=O)[O-])cc4)cc3)cc2)cc1 | 73 µM | 18 µM
CN(C)c1cc[n+](C/C=C/C[n+]2ccc(N(C)C)cc2)cc1 | 1.2 µM | 17 µM
